Laboratory results published in patent publication US5322858A, “N,N'-substituted imidodicarbonimidic diamides derived from hydroxylamines” (Jacobus Pharmaceutical Co. Inc., priority 1992, dated 1994).
Like-named read-outs stand apart in the source and are kept apart here.

Test system: Plasmodium falciparum (Smith strain)
Conditions: for response: text: up to 150 mg/kg for three days; for Primary treatments cleared: animals cleared/treated; for Primary treatments cured: animals cured/treated

In the case of CC1(C)N=C(N)N=C(N)N1c1ccc(Cl)cc1 [Cycloguanil], the response is reported as 0%, the Primary treatments cleared (total 3.0 mg/kg (1.0 daily)) is reported as 0/2 and the Primary treatments cured (total 3.0 mg/kg (1.0 daily)) is reported as 0/2. For the same compound, the Primary treatments cleared (total 30.0 mg/kg (10.0 daily)) was 0/2, the Primary treatments cured (total 30.0 mg/kg (10.0 daily)) was 0/2 and the Primary treatments cleared (total 150.0 mg/kg (50.0 daily)) was 0/2. For the same compound, the Primary treatments cured (total 150.0 mg/kg (50.0 daily)) was 0/2.

In the case of [H]/N=C(\N/C(=N/[H])Nc1ccc(Cl)cc1)NC(C)C [Proguanil], the response is reported as 0%, the Primary treatments cleared (total 3.0 mg/kg (1.0 daily)) is reported as 0/2 and the Primary treatments cured (total 3.0 mg/kg (1.0 daily)) is reported as 0/2. The Primary treatments cleared (total 30.0 mg/kg (10.0 daily)) was 0/2, the Primary treatments cured (total 30.0 mg/kg (10.0 daily)) was 0/2 and the Primary treatments cleared (total 150.0 mg/kg (50.0 daily)) was 0/2. The Primary treatments cured (total 150.0 mg/kg (50.0 daily)) was 0/2.
